Where two headings read alike, the source gives them in different places.
Tested on: HepG2
Assay: cells
Conditions: Homo sapiens
[1] = HepG2, read-out: HepG2-Gal IC50
[2] = HepG2, read-out: HepG2-Glu IC50

Row | Compound | IC50 [1] | IC50 [2]
1 | NC(=O)c1sc(N2CCOCC2)cc1OCCc1ccccc1 [Compound 1, 5-Morpholino-3-phenethoxythiophene-2-carboxamide] | > 100 µM | > 100 µM
2 | O=C(NO)c1sc(N2CCOCC2)cc1OCCc1ccccc1 [Compound 16, 5-Morpholino-3-(2-phenylethoxy)thiophene-2-carbohydroxamic Acid] | 41 µM | 38 µM
3 | CCNC(=O)c1sc(N2CCOCC2)cc1OCCc1ccccc1 [Compound 22, N-Ethyl-5-morpholino-3-(2-phenylethoxy)thiophene-2-carboxamide] | 57 µM | 47 µM
4 | CON(C)C(=O)c1sc(N2CCOCC2)cc1OCCc1ccccc1 [Compound 25, N-Methoxy-N-methyl-5-morpholino-3-phenethoxythiophene-2-carboxamide] | 61.8 µM | 73.2 µM

— article PMC6089501 (Journal of Medicinal Chemistry, 2018)
